PubChem BioAssay AID720551 (National Center for Advancing Translational Sciences (NCATS), 2013)
Only a part is listed here, and it is no random draw. Some tests of the compounds listed are not included; inactive here does not mean inactive elsewhere. Active and inactive are the calls of the source.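 The calls were made as follows: active = maximum activity change below -70%; inconclusive = maximum activity change between -70% and -50%; inactive = maximum activity change above -50%.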

The chains behind the UniProt entries cited, without tags or fusion partners.
UniProt Q12809, whole entry: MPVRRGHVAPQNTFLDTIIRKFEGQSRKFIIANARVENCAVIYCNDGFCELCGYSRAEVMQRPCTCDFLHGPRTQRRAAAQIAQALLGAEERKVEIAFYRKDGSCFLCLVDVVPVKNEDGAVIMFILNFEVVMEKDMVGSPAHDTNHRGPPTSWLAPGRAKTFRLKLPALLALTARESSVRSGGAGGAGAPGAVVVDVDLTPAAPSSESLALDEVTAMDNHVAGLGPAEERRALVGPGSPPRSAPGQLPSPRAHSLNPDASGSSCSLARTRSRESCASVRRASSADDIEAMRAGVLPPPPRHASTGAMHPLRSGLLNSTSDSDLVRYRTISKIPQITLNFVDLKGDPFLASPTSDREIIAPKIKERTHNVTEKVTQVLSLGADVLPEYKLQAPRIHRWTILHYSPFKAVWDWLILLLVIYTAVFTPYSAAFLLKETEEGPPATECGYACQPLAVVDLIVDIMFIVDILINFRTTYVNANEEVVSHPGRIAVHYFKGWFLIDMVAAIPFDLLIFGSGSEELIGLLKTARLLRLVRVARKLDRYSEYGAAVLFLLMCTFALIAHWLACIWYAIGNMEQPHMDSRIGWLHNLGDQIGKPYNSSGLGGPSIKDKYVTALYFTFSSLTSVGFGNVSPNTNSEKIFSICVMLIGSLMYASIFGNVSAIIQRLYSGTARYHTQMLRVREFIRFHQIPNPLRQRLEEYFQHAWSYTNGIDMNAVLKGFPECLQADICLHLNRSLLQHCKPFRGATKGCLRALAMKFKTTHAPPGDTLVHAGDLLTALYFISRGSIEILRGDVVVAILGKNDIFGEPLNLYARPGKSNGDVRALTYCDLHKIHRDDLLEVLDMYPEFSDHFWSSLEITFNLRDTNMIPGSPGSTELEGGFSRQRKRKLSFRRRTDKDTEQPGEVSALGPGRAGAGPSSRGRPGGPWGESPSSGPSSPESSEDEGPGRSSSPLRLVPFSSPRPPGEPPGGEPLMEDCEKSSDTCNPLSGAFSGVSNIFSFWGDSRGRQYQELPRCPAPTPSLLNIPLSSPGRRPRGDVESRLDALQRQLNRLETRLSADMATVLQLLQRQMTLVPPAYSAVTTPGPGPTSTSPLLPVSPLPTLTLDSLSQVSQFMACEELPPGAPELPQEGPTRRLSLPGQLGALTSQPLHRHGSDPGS

What follows are compounds tested against Voltage-gated inwardly rectifying potassium channel KCNH2 (Homo sapiens) (UniProt Q12809) (assay: qHTS for Inhibitors of KCHN2 3.1: Wildtype qHTS). Conditions: U2OS, BacMam KCNH2, thallium flux FluxOr; at 1.84 µM; active compounds read low.
Text: Many antipsychotic drugs that inhibit the neurotransmitter dopamine also bind to hERG1 channel which might help explain their antipsychotic activity but also produces cardiac side effects. The discovery of the novel KCNH2 3.1 isoform offers a potential new target for the development of antipsychotic drugs without cardiac side effects. This proposal will use a high throughput thallium flux assay developed for KCNH2 to screen compounds that modulate the activity of KCNH2 3.1. The wild type KCNH2 channel will also be screened in parallel to help define the selective modulators of this KCNH2 3.1 potassium channel. The resulting compounds will be validated in electrophysiology experiments. The availability of animal models will allow future testing in vivo for effects on memory and other aspects of animal physiology linked with psychosis. NIH Chemical Genomics Center [NCGC] NIH Molecular Libraries Probe Centers Network [MLPCN] MLPCN Grant: MH096539 Assay Submitter (PI): James Barrow, Johns Hopkins University, Lieber Institute for Brain Development
U2OS cells were resuspended in cell media containing 10% fetal calf serum (FCS) at a concentration of 2 million cells / mL. The solution was treated with the Wild-type virus at 2.03 x 10^8 / mL and allowed to incubate at room temperature in the dark. After 4 hours of incubation, DMEM + 10% fetal bovine serum (FBS) was added to the cell solution. Three microliter was then dispensed into a 1536 tissue culture treated black assay plates which were incubated overnight at 37 C. Two microliter of loading buffer (HBSS + HEPES + Red40 dye quencher + FluxOr dye) was added and the assay plates were incubated for 45 min at room temperature in the dark. […] A stimulation buffer was added to the plate and the second kinetic read (2 min) was obtained. The rate constant was calculated from the kinetic reads and normalized to the positive and negative DMSO controls.
% is scaled to controls: 0 for no effect and ±100 for the full control effect.

SMILES | activity change
COc1ccc(Cl)cc1C(=O)NCC1(N(C)C)CCCCC1 | inactive: 20.9%
COc1cccc(C(=O)NCC2(N3CCCCC3)CCCCC2)c1 | inactive: 6.74%
O=C(NCC1(N2CCCCC2)CCCCC1)c1cccc(Cl)c1 | inactive: 25.6%
CN(C)C1(CNC(=O)c2ccc(Br)cc2)CCCCC1 | inactive: 39.2%
COc1cc(C(=O)NCC2(N(C)C)CCCCC2)c([N+](=O)[O-])cc1OC | inactive: 4.24%
C=C(C)C#CC(O)(C(=O)OC1CCN(C)CC1)c1ccccc1 (stereo unspecified) | inactive: 10%
COc1ccc(Br)c(C(=O)NCC2(N3CCCCC3)CCCCC2)c1 | inactive: -7.56%
O=C(OCCN1CCCC1)C(O)(c1ccccc1)c1ccccc1 | inactive: 6.28%
CC(C)Oc1ccc(C(=O)NCC2(N(C)C)CCCCC2)cc1 | inactive: 27.4%
CN(C)c1cccc(C(=O)NCC2(N(C)C)CCCCC2)c1 | inactive: -16.8%
O=C(OC1CN2CCC1CC2)C(CO)(c1ccccc1)c1ccccc1 (stereo unspecified) | inactive: 2.56%
COc1cc(SC)ccc1C(=O)NCC1(N(C)C)CCCCC1 | inactive: 2.15%
CCN(CC)CC(C)C(C)OC(=O)C(O)(c1ccccc1)c1ccccc1 (stereo unspecified) | inactive: 8.72%
CC(C)N1C(=O)CC2(CCN(CCOC(=O)C(O)(c3ccccc3)c3ccccc3)CC2)C1=O | inactive: 4.66%
Cc1ccc(C(=O)NCC2(N3CCCCC3)CCCCC2)cc1 | inactive: 5.3%
O=C(NCC1(N2CCCCC2)CCCCC1)c1cc([N+](=O)[O-])ccc1Cl | inactive: -0.608%
CN1[C@@H]2CC[C@H]1CC(OC(=O)C(O)(c1ccccc1)c1ccccc1)C2 (stereo partly specified) | inactive: 12.1%
O=C(NCC1(N2CCCCC2)CCCCC1)c1cc(F)c(F)cc1Cl | inactive: 6.51%
C=CCN1CCN(CCOC(=O)C(O)(c2ccccc2)c2ccccc2)CC1 | inactive: 1.47%
COc1ccc(C(=O)NCC2(N(C)C)CCCCC2)cc1 | inactive: 4.33%
O=C(NCC1(N2CCCCC2)CCCCC1)c1cccc(Br)c1 | inactive: 1.42%
Cc1cc(C(=O)NCC2(N3CCCCC3)CCCCC2)ccc1[N+](=O)[O-] | inactive: 2.06%
CCN1CCCC(OC(=O)C2(O)c3ccccc3C=Cc3ccccc32)C1 (stereo unspecified) | inactive: 27.8%
CN(C)C1CCCC1OC(=O)C(O)(c1ccccc1)c1ccccc1 (stereo unspecified) | inactive: 10.1%
CN(C)c1ccc(C(=O)NCC2(N(C)C)CCCCC2)cc1 | inactive: -8.87%
Cc1ccccc1C(=O)NCC1(N2CCCCC2)CCCCC1 | inactive: 13.7%
